Reference: PubChem BioAssay AID720 (The Scripps Research Institute Molecular Screening Center, 2007)
This is a selection; strong and weak results do not stand in their true shares. Active and inactive are the calls of the source.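 The calls were made as follows: active = inhibition above the screen-wide mean inhibition plus 3 SD (cut at about 15% in these data); inactive = the rest.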

By UniProt entry, the sequences of proteins in these tests, tags left out.
UniProt P54760, whole entry: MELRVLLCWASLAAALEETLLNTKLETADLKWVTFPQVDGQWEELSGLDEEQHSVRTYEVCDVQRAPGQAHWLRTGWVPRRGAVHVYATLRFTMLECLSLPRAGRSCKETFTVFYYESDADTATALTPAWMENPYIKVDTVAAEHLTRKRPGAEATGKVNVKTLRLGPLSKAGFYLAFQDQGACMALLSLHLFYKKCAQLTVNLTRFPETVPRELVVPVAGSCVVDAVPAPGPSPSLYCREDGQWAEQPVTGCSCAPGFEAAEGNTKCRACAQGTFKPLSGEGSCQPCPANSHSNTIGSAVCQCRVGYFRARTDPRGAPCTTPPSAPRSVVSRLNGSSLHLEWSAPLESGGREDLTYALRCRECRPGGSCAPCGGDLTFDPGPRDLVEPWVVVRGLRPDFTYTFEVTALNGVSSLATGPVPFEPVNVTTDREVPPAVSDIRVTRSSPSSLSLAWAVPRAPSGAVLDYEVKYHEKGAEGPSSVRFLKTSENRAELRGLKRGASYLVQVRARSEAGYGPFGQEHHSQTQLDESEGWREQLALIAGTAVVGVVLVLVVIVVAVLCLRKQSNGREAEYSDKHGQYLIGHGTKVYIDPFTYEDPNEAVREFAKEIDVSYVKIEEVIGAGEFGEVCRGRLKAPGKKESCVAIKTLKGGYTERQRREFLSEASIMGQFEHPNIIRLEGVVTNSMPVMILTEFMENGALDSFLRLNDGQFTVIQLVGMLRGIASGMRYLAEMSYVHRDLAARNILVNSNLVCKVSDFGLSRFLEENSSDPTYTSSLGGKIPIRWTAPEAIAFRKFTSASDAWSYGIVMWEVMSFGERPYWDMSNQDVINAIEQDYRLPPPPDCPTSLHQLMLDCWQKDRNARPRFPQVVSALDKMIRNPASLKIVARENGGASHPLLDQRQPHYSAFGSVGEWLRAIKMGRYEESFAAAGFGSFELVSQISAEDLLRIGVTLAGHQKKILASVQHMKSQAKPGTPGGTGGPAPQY

biological target: Ephrin type-B receptor 4 (Homo sapiens) (UniProt P54760); experiment: blockers of EphB4 ligand binding – biochemical, TNYL-RAW peptide probe, fluorescence polarization, primary screen (AID 720); settings: EphB4 LBD / TNYL-RAW-Alexa532 peptide, at 7 µM, stronger effect = higher value;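 also: 0% = DMSO wells and 100% = excess unlabeled TNYL-RAW peptide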

| Compound | inhibition |
| --- | --- |
| COc1ccc(OP(C)(=O)Nc2cccc(F)c2)cc1 (stereo not given) | inactive: 1.07% |
| CP(=O)(NC(=O)Nc1ccccc1)Oc1ccccc1 (stereo not given) | inactive: -3.45% |
| CP(=O)(Nc1ccccn1)Oc1ccc(Cl)cc1 (stereo not given) | inactive: -0.2% |
| CP(=S)(Nn1cnnc1)Oc1ccccc1 (stereo not given) | inactive: -0.27% |
| COc1ccccc1OP(C)(=O)Nc1c(C)cccc1C (stereo not given) | inactive: -4.48% |
| Cc1nc2ccc3ccccc3c2s1.O=[N+]([O-])c1cc([N+](=O)[O-])c(O)c([N+](=O)[O-])c1 | inactive: 9.95% |
| Cc1cc(C)cc(OP(C)(=O)Nc2ccc(C)cc2C)c1 (stereo not given) | inactive: -7.68% |
| Cc1ccc(C)c(NP(C)(=O)Oc2ccccc2)c1 (stereo not given) | inactive: 0.66% |
| Cc1cc(C)cc(OP(C)(=O)Nc2ccccn2)c1 (stereo not given) | inactive: 2.97% |
| CP(=O)(Nc1ccccc1)Oc1ccc(F)cc1 (stereo not given) | inactive: 3.6% |
| CCN(CC)CCCOC(=O)C(O)(c1ccccc1)C1CCCCC1 (stereo not given) | inactive: 1.4% |
| CP(=O)(Nc1ccccc1F)Oc1ccccc1 (stereo not given) | inactive: 2.21% |
| CCOP(C)(=S)SCC(=O)NC(C)(CC)C(=O)O (stereo not given) | inactive: -8.4% |
| CP(=O)(Nc1ccc2c(c1)OCCO2)Oc1ccccc1 (stereo not given) | inactive: -3.62% |
| CN(C)CCOC(=O)C(O)(c1ccccc1)C1CCCCC1 (stereo not given) | inactive: -7.66% |
| COc1ccc(OP(C)(=O)Nc2cccc(Br)c2)cc1 (stereo not given) | inactive: -3.81% |
| CP(=O)(OC12CC3CC(CC(C3)C1)C2)OC12CC3CC(CC(C3)C1)C2 | inactive: -2.06% |
| COc1ccccc1OP(C)(=O)Nc1c(C)n(C)n(-c2ccccc2)c1=O (stereo not given) | inactive: -11.5% |
| CP(=O)(Oc1ccccc1)N1CCOC1=O (stereo not given) | inactive: -1.46% |
| CCN(CC)CC(O)COC(=O)C(O)(c1ccccc1)C1CCCCC1 (stereo not given) | inactive: -0.45% |
| CC(C)(C)c1ccc(OP(C)(=O)O)cc1 | inactive: -1.21% |
| CP(=O)(Nc1ccc(Cl)cc1)Oc1ccc(F)cc1 (stereo not given) | inactive: -4.12% |
| COc1ccc(OP(C)(=O)Nc2ccccn2)cc1 (stereo not given) | inactive: -1.93% |
| CN(C)CCOC(=O)C(O)(c1ccccc1)C1CCCC1 (stereo not given) | inactive: 1.05% |
| CP(=O)(Nc1ccccn1)Oc1ccccc1 (stereo not given) | inactive: 7.13% |
| COc1ccccc1OP(C)(=O)Nc1ccc(C)cc1C (stereo not given) | inactive: -4.07% |
| CCc1ccc(OP(C)(=O)O)cc1 | inactive: 0.03% |
| Cc1c(NP(C)(=O)Oc2ccc(C(C)C)cc2)c(=O)n(-c2ccccc2)n1C (stereo not given) | inactive: 0.91% |
| COc1ccccc1OP(C)(=O)Nc1ccc(C)c(C)c1 (stereo not given) | inactive: 2.15% |
| Cc1nc2ccc3ccccc3c2o1.O=[N+]([O-])c1cc([N+](=O)[O-])c(O)c([N+](=O)[O-])c1 | inactive: 7.27% |
